# Source: patent publication US12357619B2, “Noradrenergic and specific serotonergic anxiolytic and antidepressant, method for the production and use thereof” (ALLA CHEM, LLC, priority 2020, dated 2025)
# Amino acid sequences for entries named in this document (tags omitted).
# UniProt P35367, whole entry: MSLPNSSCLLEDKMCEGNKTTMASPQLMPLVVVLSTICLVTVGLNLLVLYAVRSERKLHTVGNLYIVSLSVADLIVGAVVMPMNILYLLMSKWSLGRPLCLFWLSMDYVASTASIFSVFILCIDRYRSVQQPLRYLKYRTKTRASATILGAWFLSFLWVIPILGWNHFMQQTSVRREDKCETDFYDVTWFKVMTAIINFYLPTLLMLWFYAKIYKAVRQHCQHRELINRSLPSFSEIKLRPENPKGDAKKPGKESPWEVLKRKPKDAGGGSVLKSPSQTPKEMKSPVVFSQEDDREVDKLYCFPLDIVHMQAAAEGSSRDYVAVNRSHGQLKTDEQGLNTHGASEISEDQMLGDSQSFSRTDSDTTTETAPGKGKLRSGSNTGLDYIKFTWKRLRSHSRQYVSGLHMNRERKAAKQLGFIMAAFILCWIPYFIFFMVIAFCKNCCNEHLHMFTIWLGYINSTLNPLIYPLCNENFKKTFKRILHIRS
# Molecular target: Histamine H1 (Homo sapiens, UniProt P35367)
# Assay: Receptor activities, Ki (Table 1)
# Format: binding
smiles,measurement,value
"Cc1ccc2c(c1)c1c(n2CCc2ccccc2)CCN(C)C1.Cl [A•HCl, 2,8-dimethyl-5-(2-phenylethyl)-2,3,4,5-tetrahydro-1H-pyrido[4,3-b]indole hydrochloride]",Ki,0.58 nM
